{"sequences": {"note": "By UniProt entry, the sequences of proteins in these tests, tags left out.", "UniProt P42336, whole entry": "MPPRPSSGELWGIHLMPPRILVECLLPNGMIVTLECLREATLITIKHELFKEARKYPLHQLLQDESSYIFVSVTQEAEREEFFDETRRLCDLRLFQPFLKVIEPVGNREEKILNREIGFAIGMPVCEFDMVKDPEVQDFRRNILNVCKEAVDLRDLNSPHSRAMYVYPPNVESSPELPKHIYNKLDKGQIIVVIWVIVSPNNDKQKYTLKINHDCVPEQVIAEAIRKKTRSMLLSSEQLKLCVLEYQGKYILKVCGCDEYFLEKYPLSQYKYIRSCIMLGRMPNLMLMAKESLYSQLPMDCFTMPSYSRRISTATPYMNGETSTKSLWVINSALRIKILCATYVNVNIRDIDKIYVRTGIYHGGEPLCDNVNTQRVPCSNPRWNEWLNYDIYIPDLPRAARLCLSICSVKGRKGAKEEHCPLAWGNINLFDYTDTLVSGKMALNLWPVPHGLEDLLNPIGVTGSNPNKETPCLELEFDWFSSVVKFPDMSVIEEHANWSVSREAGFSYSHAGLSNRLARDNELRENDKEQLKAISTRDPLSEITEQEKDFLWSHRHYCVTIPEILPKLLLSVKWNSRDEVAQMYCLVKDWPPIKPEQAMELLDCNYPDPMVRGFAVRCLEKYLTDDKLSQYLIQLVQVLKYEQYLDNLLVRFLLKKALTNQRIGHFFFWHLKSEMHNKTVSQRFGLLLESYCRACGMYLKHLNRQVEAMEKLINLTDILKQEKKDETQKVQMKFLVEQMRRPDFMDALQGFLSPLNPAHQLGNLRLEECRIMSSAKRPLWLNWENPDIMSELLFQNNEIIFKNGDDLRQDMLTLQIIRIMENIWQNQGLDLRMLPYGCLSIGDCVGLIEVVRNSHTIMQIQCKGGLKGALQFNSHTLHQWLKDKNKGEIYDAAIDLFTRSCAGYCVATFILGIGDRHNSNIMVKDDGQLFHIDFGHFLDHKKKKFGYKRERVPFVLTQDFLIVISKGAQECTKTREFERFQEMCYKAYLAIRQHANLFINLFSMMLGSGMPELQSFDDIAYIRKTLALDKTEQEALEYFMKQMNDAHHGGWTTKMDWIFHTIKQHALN"}, "source": "ChEMBL document CHEMBL4706640", "about": "“Structure-Based Drug Design and Synthesis of PI3Kα-Selective Inhibitor (PF-06843195)” (J Med Chem, 2021)", "key": {"[1]": {"molecular_target": "Phosphatidylinositol 4,5-bisphosphate 3-kinase catalytic subunit alpha isoform (Homo sapiens, UniProt P42336)", "assay": "Inhibition of recombinant human N-terminal Myr signal and C-terminal Flag-tagged PI3K p110alpha expressed in rat Rat1 cells", "assay_type": "cell-based"}, "[2]": {"molecular_target": "PI3-kinase p110-alpha/p85-alpha (Homo sapiens, UniProt P42336)", "assay": "Inhibition of recombinant human full-length PI3K p110alpha/p85alpha (322 to 600) expressed in baculovirus infected Sf21 cells using phosphatidylinositol 4,5-bisphosphate as substrate preincubated for 15 mins followed by addition of ATP and measured after 30 mins by fluorescence polarisation assay"}}}
{"compound": "CC(C)(C)OC(=O)N1CC[C@](CO)(Nc2cc(-c3cnc(N)nc3)nc(N3CCOCC3)n2)C1", "values": [{"measurement": "IC50", "setting": "[1]", "value": 46, "unit": "nM"}, {"measurement": "Ki", "setting": "[2]", "value": "< 0.018", "unit": "nM"}]}
